The values below are quoted from earlier work in patent US6653298B2, “Composition” (Sterix Limited, priority 2000, dated 2003).

For the series the following is noted: in vivo; cited from earlier work.

Take oestrone sulphate [E1S]: the half-life in blood was 10 to 12 h.
